This is a selection; strong and weak results do not stand in their true shares. Results filed as inconclusive are left out. Activity calls are given as the source filed them. Calls come from the whole dose curve; as a rule, active = well fitted curve in the direction sought with a large enough effect; inconclusive = small, poorly fitted or top-dose-only effect, or another doubt; inactive = no such curve, though single readings can be large; an effect the other way counts as inactive or inconclusive.
Legend:
[1] = molecular target: Cellular tumor antigen p53 (Homo sapiens) (UniProt P04637); test: Primary qHTS for small molecule compounds that upregulate eGFP-tagged delta133p53alpha (in N-terminal) cells. (AID 2060322); details: NCI-H358 eGFP-delta133p53alpha fluorescence, 24 h; hits give high values;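 note: cells pre-induced with doxycycline then dosed without doxycycline; 0% = DMSO vehicle and 100% = reference activator; nearly all actives have a fitted effect of over 75% in size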
[2] = molecular target: Aldehyde dehydrogenase, mitochondrial (Homo sapiens) (UniProt P05091); test: qHTS for Inhibitors of the Aldehyde Dehydrogenase Family (ALDH2) Primary screen (AID 2061308); details: ALDH2 enzyme inhibition qHTS, 1536-well; at 56 µM (top of the series);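 note: plate controls were vehicle for no effect and reference inhibitor for full effect; nearly all actives have a fitted effect of over 55% in size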
[3] = molecular target: Retinaldehyde dehydrogenase 3 (Homo sapiens) (UniProt P47895); test: qHTS for Inhibitors of the Aldehyde Dehydrogenase Family (ALDH1A3) Validation screen (AID 2061312); details: ALDH1A3 enzyme inhibition qHTS validation, fluorescence; at 84.7 µM (top of the series); note: % is set by controls: 0 for no effect and ±100 for the full control effect; nearly all actives have a fitted effect of over 45% in size
[4] = molecular target: Retinaldehyde dehydrogenase 3 (Homo sapiens) (UniProt P47895); test: qHTS for Inhibitors of the Aldehyde Dehydrogenase Family (ALDH1A3) Primary screen (AID 2061315);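 note: plate controls were DMSO vehicle for no effect and reference inhibitor for full effect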; details: S. pombe CHP2027 cells, fluorescence laser cytometry, 18 h; at 56 µM (top of the series)
[5] = BET inhibitor-based combinations targeting novel dependencies in MECOM-rearranged (r) AML: SET-2 cell line (AID 2202231); details: SET-2 AML cells viability, CellTiter-Glo luminescence, 48 h; hits give low values; concentration not given here;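 note: plate controls were DMSO treated cells for no effect and wells without cells for full effect; nearly all actives have a fitted effect of over 35% in size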
How it was run: (§1)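 Each compound was tested at eleven concentrations on cells seeded at 500/well. After two days' incubation, ATP-based luminescence reported viability; responses relative to DMSO and blank wells yielded AUC and cell-line-centred Z-AUC.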

Chains of the proteins cited; added tags and fusions are not shown.
UniProt P04637, whole entry: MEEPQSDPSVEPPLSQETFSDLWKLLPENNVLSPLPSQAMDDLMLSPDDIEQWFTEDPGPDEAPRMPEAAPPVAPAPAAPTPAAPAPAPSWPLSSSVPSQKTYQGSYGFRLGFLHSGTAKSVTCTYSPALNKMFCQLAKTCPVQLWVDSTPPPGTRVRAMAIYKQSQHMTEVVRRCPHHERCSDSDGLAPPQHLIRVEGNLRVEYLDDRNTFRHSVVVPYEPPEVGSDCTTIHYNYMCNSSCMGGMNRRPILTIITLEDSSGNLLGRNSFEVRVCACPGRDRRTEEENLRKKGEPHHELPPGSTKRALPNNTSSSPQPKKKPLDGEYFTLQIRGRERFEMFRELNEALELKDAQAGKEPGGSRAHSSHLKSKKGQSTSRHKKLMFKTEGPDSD

[6] = BET inhibitor-based combinations targeting novel dependencies in MECOM-rearranged (r) AML: OCI-AML3 cell line (AID 2202232); details: CellTiter-Glo luminescence, 48 h; at 46 µM (top of the series);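 note: plate controls were DMSO vehicle wells for no effect and wells without cells for full effect; nearly all actives have a fitted effect of over 35% in size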
How it was run: as §1

[7] = BET inhibitor-based combinations targeting novel dependencies in MECOM-rearranged (r) AML: MV-4-11 cell line (AID 2202233); details: MV-4-11 AML viability, CellTiter-Glo luminescence, 48 h; at 46 µM (top of the series);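 note: plate controls were DMSO for no effect and blank wells for full effect; nearly all actives have a fitted effect of over 45% in size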
How it was run: (§2)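 First, 500 cells per well were seeded; next, drugs were pinned as 11-point doses; then plates sat 48 hr in the incubator; finally CellTiter-Glo was added and luminescence read, with AUC and Z-AUC computed.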

[8] = BET inhibitor-based combinations targeting novel dependencies in MECOM-rearranged (r) AML: HNT-34 cell line (AID 2202234); details: HNT-34 AML viability, CellTiter-Glo luminescence, 48 h; at 46 µM (top of the series);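 note: plate controls were vehicle wells for no effect and cell-free wells for full effect; nearly all actives have a fitted effect of over 35% in size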
How it was run: as §2

[9] = BET inhibitor-based combinations targeting novel dependencies in MECOM-rearranged (r) AML: UCSD-AML1 cell line (AID 2202235); details: UCSD-AML1 AML cells viability, CellTiter-Glo, 48 h; at 46 µM (top of the series);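 note: plate controls were DMSO vehicle wells for no effect and blank wells for full effect; nearly all actives have a fitted effect of over 40% in size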
How it was run: as §2

[10] = BET inhibitor-based combinations targeting novel dependencies in MECOM-rearranged (r) AML: AML-191 cell line (AID 2202236;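 note: plate controls were vehicle wells for no effect and wells without cells for full effect; nearly all actives have a fitted effect of over 35% in size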); details: AML-191 viability, CellTiter-Glo luminescence, 48 h; at 46 µM (top of the series)
How it was run: as §1

[11] = BET inhibitor-based combinations targeting novel dependencies in MECOM-rearranged (r) AML: AML-194 cell line (AID 2202237;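 note: plate controls were vehicle wells for no effect and wells without cells for full effect; nearly all actives have a fitted effect of over 40% in size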); details: AML-194 (MECOM-r AML) viability, CellTiter-Glo, 48 h; at 46 µM (top of the series)
How it was run: as §1

CCOC(=O)N1CCC(=O)CC1
inactive: activation [1] 5.02%

CC(=O)N1CCc2ccc(N(C(=O)/C=C/c3cccc(C#N)c3)C3CCN(CCC4CCCC4)CC3)cc21
inactive: activation [1] 16.2% | activity change, negative = inhibition [2] 1.77% | activity change, negative = inhibition [3] 49.7% | activity change, negative = inhibition [4] 1.89%

CCC(=O)N(c1ccccc1)C1CCNCC1
inactive: activation [1] -26.6%

CCOC(=O)C(=O)CBr
inactive: activation [1] -8.91% | viability [5] 86.9% | viability (% of control) [6] 106% | viability, % of control [7] 105% | viability (% of control) [8] 99.9% | viability (% of control) [9] 106% | viability (% of control) [10] 112% | viability (% of control) [11] 109%

Source: PubChem BioAssay (NCATS)
